Values of other authors as cited in PMC12080252, “Daphnia magna as an Alternative Model for (Simultaneous) Bioaccumulation and Chronic Toxicity Assessment—Controlled Exposure Study Indicates High Hazard of Heterocyclic PAHs” (Environmental Science & Technology, 2025).

Test system: H. azteca
Details: in vivo; cited from earlier work

Structure (SMILES): O=C(O)Cc1ccccc1Nc1c(Cl)cccc1Cl [diclofenac]
- half-life: 16.8 min
